Earlier results on 1 substance are cited in US20120134977A1 (YEDA RESEARCH AND DEVELOPMENT CO. LTD., priority 2009, published 2012).

The conditions of series [1]: background statement; cited from earlier work.
A further series concerns CD1-mice. To be noted: 0.68 nmol/mouse subcutaneous; Shechter et al. (2003); cited from earlier work.

insulin: the half-life in plasma in series [1] was 5 to 6 min. Also, the “effect of subcutaneous administration at this dose in mice” value in the series on CD1-mice was “severely hypoglycemic”.
